In US11376333B2, “mTG substrates for covalent conjugation of compounds” (COVALAB, priority 2013, dated 2022):

How the values were obtained:
[1] = biological target: T1, microbial transglutaminase (mTG) (Streptomyces mobaraensis, UniProt P81453); assay: mTG-mediated incorporation of biotin-X-cadaverine into peptides coupled on Covabtest plate; format: biochemical; settings: 15 nmoles peptide coupled to plate, biot-cad 0.1 mg/ml, mTG 10 ng/well
T1 construct: purchased Covalab, France opr 0054
T1 sequence (P81453 77-407): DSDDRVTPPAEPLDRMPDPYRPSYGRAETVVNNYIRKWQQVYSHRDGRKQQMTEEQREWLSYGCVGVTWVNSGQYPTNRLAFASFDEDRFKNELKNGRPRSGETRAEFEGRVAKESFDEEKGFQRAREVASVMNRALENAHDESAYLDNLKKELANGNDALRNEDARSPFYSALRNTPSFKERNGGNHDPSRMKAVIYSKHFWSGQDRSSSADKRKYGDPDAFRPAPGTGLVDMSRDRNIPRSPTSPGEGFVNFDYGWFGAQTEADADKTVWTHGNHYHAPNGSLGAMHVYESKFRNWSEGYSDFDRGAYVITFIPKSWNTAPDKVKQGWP
Method: The coupling method was previously described by the Applicant (V. Thomas et al, 2004) and also in the corresponding data sheet of CovAbtest-Plate™ which is commercially available from Covalab (Ref #opr0004). Briefly, in separate tubes a solution mixture containing 150 μM of each peptide dissolved in 10 mM phosphate buffer pH5, 5 mM EDAC and 5 mM NHS was incubated for 30 min under gentle shaking. The resulting activated NHS-carboxyl C-terminal moiety of each peptide (15 nmoles) was used to be conjugated in each well of CovAbtest-Plate™ previously deprotonated during 15 min with 150 μl 0.6% sodium bicarbonate per well. […]
For this experiment we used the same procedures described by V Thomas et all (2004) and also in the Covalab's commercialized kit (opr0033). […] Absorbances at 450 nm were measured using a microplate reader (Multiskan, Labsystems, Helsinki, Finland).
To screen the peptide library (Covalab) and identify the putative new substrates of mTG we used Covabtest-peptide (described in B-I-1) in which the peptides were covalently coupled into the plates and the amine substrate Biotin-cadeverine (biot-cad) was free in solution. In this experiment 15 nmoles of each peptide (table 2) were covalently conjugated to microtiter plate and the incorporation of biot-cad (0.1 mg/ml) catalyzed by mTG (10 ng/well) was determined following the experiment described in B-II-1. […]

[2] = biological target: T2, human transglutaminase 2 (hTG2) (Homo sapiens, UniProt P21980); assay: TG2-mediated incorporation of biotin-cadaverine into peptides coupled on Covabtest plate; format: biochemical; settings: same conditions as for mTG
T2 construct: purchased Covalab, France opr 0027
T2 sequence (P21980 1-687): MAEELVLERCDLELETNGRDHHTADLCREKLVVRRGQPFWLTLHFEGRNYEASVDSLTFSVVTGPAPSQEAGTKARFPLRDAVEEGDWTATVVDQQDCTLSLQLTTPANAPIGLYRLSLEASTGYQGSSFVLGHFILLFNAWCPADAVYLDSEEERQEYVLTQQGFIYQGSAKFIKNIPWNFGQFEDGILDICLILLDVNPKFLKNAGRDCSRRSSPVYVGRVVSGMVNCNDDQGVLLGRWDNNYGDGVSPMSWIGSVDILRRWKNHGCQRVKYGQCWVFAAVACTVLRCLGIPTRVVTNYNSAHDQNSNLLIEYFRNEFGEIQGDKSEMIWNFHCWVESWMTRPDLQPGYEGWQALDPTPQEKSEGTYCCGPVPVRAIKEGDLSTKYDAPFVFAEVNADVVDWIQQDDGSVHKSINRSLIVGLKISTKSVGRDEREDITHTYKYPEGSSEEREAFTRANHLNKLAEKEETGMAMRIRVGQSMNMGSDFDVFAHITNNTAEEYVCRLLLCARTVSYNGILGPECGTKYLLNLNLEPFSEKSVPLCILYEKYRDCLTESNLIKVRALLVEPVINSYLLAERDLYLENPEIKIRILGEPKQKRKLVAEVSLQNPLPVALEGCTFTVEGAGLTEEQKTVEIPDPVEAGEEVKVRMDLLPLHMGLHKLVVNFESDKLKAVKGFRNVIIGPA
Method: The coupling method was previously described by the Applicant (V. Thomas et al, 2004) and also in the corresponding data sheet of CovAbtest-Plate™ which is commercially available from Covalab (Ref #opr0004). Briefly, in separate tubes a solution mixture containing 150 μM of each peptide dissolved in 10 mM phosphate buffer pH5, 5 mM EDAC and 5 mM NHS was incubated for 30 min under gentle shaking. The resulting activated NHS-carboxyl C-terminal moiety of each peptide (15 nmoles) was used to be conjugated in each well of CovAbtest-Plate™ previously deprotonated during 15 min with 150 μl 0.6% sodium bicarbonate per well. The microtiter plate was then incubated during 2 hrs at room temperature and washed extensively with Tris Buffer Saline.
For this experiment we used the same procedures described by V Thomas et all (2004) and also in the Covalab's commercialized kit (opr0033). Briefly the Lyophilized transglutaminase was reconstituted in 40 mM tris buffer pH 8 and 50 μl of each mTG at 200 ng/ml and at 40 ng/ml were added in the wells containing 50 μl of biotin-X-cadaverine. The enzymatic mixture was incubated for 15 min at room temperature under gentle shaking. […] Absorbances at 450 nm were measured using a microplate reader (Multiskan, Labsystems, Helsinki, Finland). […]

In the case of “Z-Q-G (QG) [TGpan, peptide known to be good substrate for transglutaminases, reference compound]”, the “reactivity as Gln donor for mTG incorporation of biot-cad” value [1] is reported as “low reactivity” and the “reactivity as substrate for TG2 incorporation of biot-cad” value [2] is reported as “good substrate for TG2”.
